Patent US6337206B1 (priority 1997, dated 2002)

Biological target: T1, human GALR2 (Homo sapiens, UniProt O43603)
T1 construct: expressed in transfected cells; host or cells: 293-AEQ17 (aequorin-expressing 293 line)
T1 sequence (O43603 1-387): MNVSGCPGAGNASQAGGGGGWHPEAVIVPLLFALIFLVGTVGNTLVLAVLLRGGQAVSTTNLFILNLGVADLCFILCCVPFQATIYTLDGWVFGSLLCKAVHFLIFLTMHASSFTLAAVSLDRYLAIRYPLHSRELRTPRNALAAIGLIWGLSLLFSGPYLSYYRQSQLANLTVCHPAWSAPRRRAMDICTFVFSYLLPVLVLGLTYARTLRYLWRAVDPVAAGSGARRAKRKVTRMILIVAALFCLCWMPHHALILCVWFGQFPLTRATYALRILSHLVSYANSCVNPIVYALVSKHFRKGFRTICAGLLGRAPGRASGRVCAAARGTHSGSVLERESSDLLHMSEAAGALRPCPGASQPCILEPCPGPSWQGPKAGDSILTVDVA
Assay: Aequorin bioluminescence assay in 293-AEQ17 cells, human GALR2
Type: cell-based
Conditions: read-out: EC50, aequorin bioluminescence; human GALR2 in 293-AEQ17 cells

How did the EC50 turn out when human Galanin was run?
The EC50 was 32 nM.
